US20140335050A1, “METHODS, COMPOSITIONS, AND KITS FOR THE TREATMENT OF CANCER” (The General Hospital Corporation, priority 2011, published 2014)

Key:
Assay type in all cases: cell-based, human
453A melanoma cell line = assay: Intracellular antibody staining and flow cytometry (Melan-A/MART-1, gp100/HMB45); settings: IFN-β 5000 IU/ml for three days
Description: (§1) Cells were fixed with 1% formaldehyde, permeabilized with 0.1% saponin, stained with monoclonal antibodies to melanocyte antigens. Antibodies were obtained with specificity for: MART-1 from Vector Labs (Burlingame, Calif.); gp100 HMB45 from DakoCytomation (Carpinteria, Calif.) and then visualized with goat anti-mouse FITC-conjugated secondary antibody from Invitrogen (Fredrick, Md.). The level of EGFP was determined by flow cytometry of unfixed cells that were washed and resuspended in 1×PBS.
(§2) Cells were plated at a density of 1×10^5 in 1 ml of medium in a 24-well plate and cultured for varying times as indicated in results. Typically, 3 days of culture in the presence of Hsp90 inhibitors was optimal for the functional studies performed. After incubation, cells were collected by trypsinization and then evaluated by flow cytometry.
(§3) Intracellular staining and flow cytometric analyses of cytoplasmic Melan-A/MART-1, and gp100 expression were performed as described previously. Cells were fixed with 1% formaldehyde, permeabilized with 0.1% saponin, stained with monoclonal antibodies to melanocyte antigens. […] The level of EGFP was determined by flow cytometry of unfixed cells washed and resuspended in 1×PBS. […]

[1] = system: H59-44T melanoma cell line; assay: as above; settings: IFN-β 5000 IU/ml for three days
Description: as §1, §2, §3

MU89 melanoma cell line = assay: Antibody staining and flow cytometry (intracellular Melan-A/MART-1, gp100, TRP-2; surface MHC Class I/II)
Description: as §1, §2
(§4) Intracellular staining and flow cytometric analyses of cytoplasmic Melan-A/MART-1, and gp100 expression were performed as described previously. Cells were fixed with 1% formaldehyde, permeabilized with 0.1% saponin, stained with monoclonal antibodies to melanocyte antigens. Antibodies were obtained with specificity for: Melan-A/MART-1 from Vector Labs (Burlingame, Calif.); gp100/HMB45 from DakoCytomation (Carpinteria, Calif.) and then visualized with goat anti-mouse FITC-conjugated secondary antibody from Invitrogen (Frederick, Md.). The level of EGFP was determined by flow cytometry of unfixed cells washed and resuspended in 1×PBS. Surface staining of MHC Class I was carried out using the antibody W6/32 on cells harvested with Cell Stripper from MediaTech Inc. (Manassas, Va.) and carried out on ice.
Cell were seeded at 1×10^6 cells in a T25 flask with 10 ml of media for the 4 day IFN-beta pre-treatments. Cells were then harvested and plated in 24 well plate at 1×10^5 cells per well in 1 ml of media for 3 day treatments.
(§5) For surface staining of HLA Class I and II antigens, cells were harvested using CellStripper™ from Mediatech (Manassas, Va.). All staining steps were performed on ice. Following a first incubation with antibody to Class I (W6/32) or Class II (L243) for 30 minutes. Stained cells were washed twice with cold PBS and then stained with a goat anti-mouse FITC secondary antibody to allow for quantitative analysis by flow cytometry. For evaluation of cytoplasmic antigens, including Melan-A/MART-1 and gp100, cells were first fixed in paraformaldehyde and permeabilized with saponin as previously described. Staining for cytoplasmic antigens was carried out at room temperature (22° C.).

tumor cell lines = assay: MHC Class I and Class II surface staining, statements over a panel of tumor cell lines
From the text: Based on the results with 17-AAG, we also tested additional inhibitors of HSP90. […] An increase in the fluorescence staining indicates an increase in MHC Class I. The geometric mean fluorescence intensities of these flow histograms were used to generate Table 11. […] The level of MHC Class I expression increases between two to five fold with IFN-β treatment alone as expected. As shown previously the level of MHC Class I expression also increases between 2.5 to 4.5 fold with HSP90 inhibition.
This effect is observed with the use of three separate inhibitors of HSP90, 17-AEP a water soluble relative of 17-AAG which are relatives of the natural product geldanamycin, PU-H71, a purine derivative found to block HSP90 by competing with ATP binding, and CCT018159, an HSP90 inhibitor identified by drug screening. The combination treatments were carried using two methods. Both involve the pre-treatment of the melanoma tumor cells with IFN-β for four days, after which in one set of conditions the IFN-β is removed and the other set of conditions it is added again. Under both sets of conditions, a synergy between IFN-β and HSP90 inhibition is observed, incubated together higher levels of MHC Class I are observed than with either alone. Some of the increases seen were in excess of an order of magnitude (10-fold) more MHC Class I expression. The four day pretreatment without further IFN-β in combination with the HSP90 inhibitors was always lower than the four day pretreatment with addition of more IFN-β in combination with HSP90 inhibition. […] The MU89 cell line was also more responsive to the combination of IFN-β and HSP90 inhibitors than the other melanoma cell lines MUX and A375.
In addition, HLA Class II expression can also be induced or enhanced by Hsp90 inhibition on otherwise negative tumors cells. […]
For surface staining of HLA Class I and II antigens, cells were harvested using CellStripper™ from Mediatech (Manassas, Va.). […] Stained cells were washed twice with cold PBS and then stained with a goat anti-mouse FITC secondary antibody to allow for quantitative analysis by flow cytometry. […]

U-87 MG glioma cell line = assay: Antibody staining and flow cytometry (intracellular gp100; surface MHC Class I)
Description: as §1, §2, §4

[2] = system: EBV-19 B cell lymphoma cells; assay: Surface antibody staining and flow cytometry (MHC Class I/II); settings: three days, IFN-β 5000 Units/ml
Description: as §4, §5

[3] = MU89, 3 days, IFN-beta 5000 Units/ml, 17-AEP 1.0, PU-H71 0.3, CCT018159 10.0 μg/ml
[4] = MU89, three days, IFN-β 5000 Units/ml, IFN-γ 100 ng/ml, PU-H71 0.3 mg/ml
[5] = HeLa, MCF-7, U2-OS, MU-89, U118, Jurkat, Raji (Table 19)
[6] = U-87 MG, 3 days, IFN-beta 5000 Units/ml, 17-AEP 0.5, PU-H71 0.3, CCT018159 5.0 μg/ml

B1: IFN-β: IFN-β-1a (Avonex) obtained from Biogen-Idec; SEQ ID NO: 1 (protein, listed as Homo sapiens)
chain: MSYNLLGFLQRSSNFQCQKLLWQLNGRLEYCLKDRMNFDIPEEIKQLQQFQKEDAALTIYEMLQNIFAIFRQDSSSTGWNETIVENLLANVYHQINHLKTVLEEKLEKEDFTRGKLMSSLHLKRYYGRILHYLKAKEYSHCAWTIVRVEILRNFYFINRLTGYLRN
modifications: (1)..(166) IFN-beta-1a
MART-1, geometric mean of intracellular staining using anti-MART-1 (453A melanoma cell line): 113 | MART-1, geometric mean of intracellular staining using anti-MART-1 [1]: 103 | Class I, fold increase relative to untreated control (MU89 melanoma cell line; [3]): 2.8 fold | Class I, geometric mean of surface staining (W6/32) (MU89 melanoma cell line; [3]): 51 | MART-1, fold increase relative to untreated control (MU89 melanoma cell line; [3]): 1.8 fold | MART-1, geometric mean of intracellular staining (MU89 melanoma cell line; [3]): 59 | TRP-2, fold increase relative to untreated control (MU89 melanoma cell line; [3]): 1.6 fold | TRP-2, geometric mean of intracellular staining (MU89 melanoma cell line; [3]): 150 | gp100, fold increase relative to untreated control (MU89 melanoma cell line; [3]): 1.1 fold | gp100, geometric mean of intracellular staining (MU89 melanoma cell line; [3]): 140 | MHC Class I, geometric mean of surface staining (W6/32) (MU89 melanoma cell line; MU89, 4 day IFN-β pre-treatment (5000 Units/ml), then 3 days with fresh IFN-β and the labelled HSP90 inhibitor (label IFN-β: no inhibitor), 17-AEP 1, PU-H71 0.3, CCT018159 10 mg/ml): 115 | MHC Class I, geometric mean of surface staining (W6/32) (MU89 melanoma cell line; MU89, 4 day IFN-β pre-treatment (5000 Units/ml), then 3 days without IFN-β with the labelled HSP90 inhibitor (label IFN-β: no inhibitor), 17-AEP 1, PU-H71 0.3, CCT018159 10 mg/ml): 36 | MART-1, geometric mean of intracellular staining using anti-MART-1 (MU89 melanoma cell line; MU89, IFN-β 5000 IU/ml for three days): 153 | MHC Class I, geometric mean of surface staining (W6/32) (MU89 melanoma cell line; MU89, single agent for 3 days, no IFN-β pre-treatment, IFN-β 5000 Units/ml): 83 | MHC Class I, geometric mean of surface staining (W6/32) (MU89 melanoma cell line; MU89, three days, IFN-β 5000 Units/ml): 51 | MHC Class I, geometric mean of surface staining (W6/32) (MU89 melanoma cell line; [4]): 245 | MHC Class II, geometric mean of surface staining (L2443) (MU89 melanoma cell line; [4]): 14 | L243 (MHC Class II surface staining) (MU89 melanoma cell line; MU-89, single agent): 2.8 | W6/32 (MHC Class I surface staining) (MU89 melanoma cell line; MU-89, single agent): 151.3 | Class I MHC expression over the tumor panel (tumor cell lines; [5]): induce significant increases | Class II MHC expression over the tumor panel (tumor cell lines; [5]): failed to induce | Increase of the level of MHC Class I expression (tumor cell lines; several melanoma cell lines, single agent): two to five | Class I, fold increase relative to untreated control (U-87 MG glioma cell line; [6]): 2.7 fold | Class I, geometric mean of surface staining (W6/32) (U-87 MG glioma cell line; [6]): 73 | gp100, fold increase relative to untreated control (U-87 MG glioma cell line; [6]): 1.4 fold | gp100, geometric mean of intracellular staining (U-87 MG glioma cell line; [6]): 36 | MHC Class I, geometric mean of surface staining (W6/32) (U-87 MG glioma cell line; U-87 glioma, three days, IFN-β 5000 Units/ml, PU-H71 0.075-0.3): 138 | MHC Class II, geometric mean of surface staining (L2443) ([2]; IFN-γ 100 ng/ml, PU-H71 0.3 mg/ml): 27 | MHC Class I, geometric mean of surface staining (W6/32) ([2]; IFN-γ 100 ng/ml, PU-H71 0.3): 314 | MHC Class I, geometric mean of surface staining (W6/32) ([2]; PU-H71 0.075-0.3): 219
